# Measured values reported in patent US10633374B2, “Small molecule based antibody-recruiting compounds for cancer treatment” (YALE UNIVERSITY, priority 2015, dated 2020).
# Chains of the proteins cited; added tags and fusions are not shown. Residues count along the entry.
# UniProt Q03405, 23-305 limits assumed: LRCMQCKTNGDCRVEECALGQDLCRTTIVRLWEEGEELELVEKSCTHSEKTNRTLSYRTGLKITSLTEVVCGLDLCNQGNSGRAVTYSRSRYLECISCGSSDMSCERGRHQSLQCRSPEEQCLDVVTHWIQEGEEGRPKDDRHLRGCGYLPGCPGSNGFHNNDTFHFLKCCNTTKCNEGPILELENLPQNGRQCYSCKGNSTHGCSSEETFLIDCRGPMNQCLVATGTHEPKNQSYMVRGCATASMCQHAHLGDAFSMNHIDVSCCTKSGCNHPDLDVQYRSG
# pKd: −log10 of the molar value.
# Tests used:
# uPAR (uPA binding site) = uPAR (uPA binding site) (Homo sapiens, UniProt Q03405); experiment: Competitive ELISA uPAR binding assay (immobilized urokinase); conditions: tested form: ammonium formate salt
# Procedure: The affinity of ARM-U2 derivatives differing in both the length of the DNP-linker substituted at position 2 of ring C and the display of negative charge density (FIG. 8, Table 1) for uPAR were assayed using a competitive ELISA binding assay. The assay involves the immobilization of urokinase, a natural high affinity ligand for uPAR followed by the addition of a fixed concentration of recombinant uPAR protein and increasing concentrations of ARM-U2 which competes with urokinase for binding to the uPA binding site of uPAR. Following several washing steps, the amount of uPAR bound is quantified by a biotinylated anti-uPAR antibody and avidin-HRP and can be fit to a competitive binding model allowing for the extraction of the uPAR/ARM-U2 Kd.
# All ARM-U2 derivatives were assessed for their ability to bind selectively to recombinant uPAR in vitro using a competitive ELISA binding assay. […] Selective binding to uPAR by ARM-U2 at the uPA binding site competes with uPAR-uPA binding which is required for a positive UV 450 nm absorbance signal. Increasing concentrations of ARM-U2 displace increasing amounts of uPAR from uPA which is detected by anti-uPAR/biotin labeled antibodies followed by avidin-HRP. […]
# A172 glioblastoma cells = experiment: Antibody-dependent cellular phagocytosis (ADCP) of A172 cells by U937 cells; format: cell-based, human; conditions: tested form: ammonium formate salt
# Procedure: ADCP experiments carried out via a dual channel flow cytometry assay and were performed by measuring the % phagocytosis of A172 human glioblastoma cells by IFN-gamma primed U937 macrophage effector cells each stained with FL-1 and FL-4 dyes respectively giving rise to double positive FL-1 and FL-4 fluorescence shifts accompanying phagocytosis. These assays were performed in the presence and absence of exogenously added anti-DNP antibodies and various concentrations of each ARM-U2 derivative. Control experiments were also performed to confirm that cellular phagocytosis is occurring and is dependent on ARM-U2 binding cell surface uPAR by • 1. Performing out competitions with exogenous uPAR, • 2. Performing out-competitions with 6-ABT-4 which should bind uPAR but not anti-DNP antibodies • 3. Performing ADCP at 4 degrees Celsius where phagocytosis cannot occur and • 4. Amnis microscopic analysis of double positives identified in the ADCP assay to undergo 6-ABT-1 dependent phagocytosis.
# IFNγ-primed U937 cells were stained with DiD dye (final concentration 1.9 μM) for 30 min at 37° C. A172 target cells were prepared by staining adherent cells with DiO dye (Invitrogen; final concentration 1.9 μM), and then nonenzymatically detaching the cells with 0.5 mM EDTA and EGTA. Cells were counted with trypan blue staining to verify cell viability. To measure phagocytosis, 2.5×10^4 target cells were suspended in 25 ul phenol-free low-IgG RPMI media to which 25 ul of 100 nM anti-DNP antibody (rabbit polyclonal KLH IgG, Invitrogen-100× stock) containing media was added followed by the addition of 1 ul of ARM-U2 from 100×DMSO stocks or 6-ABT-4 from 100×DMSO stocks for compound out-competition experiments, followed by the addition of 50 ul of 10^5 U937 cells in the same RPMI Assay Media resulting in a final volume of 100 uL. This experimental setup yielded an effector-to-target ratio (E:T ratios) of 4:1. For out-competition studies with exogenous uPAR, 250 ul of A-172 target cells in assay media was added directly to lyophilized 100 ug uPAR (R@D systems) to yield an 8.4 uM stock uPAR concentration, this was then combined in the manner and order described above. Eppendorfs were centrifuged at 200 rcf for 2 min then incubated at 37° C. for 1 hour or at 4° C. for 1 hr in controls establishing real phagocytosis is indeed represented by double positives in flow cytometry. Phagocytosis was halted by placing tubes on ice. Flow cytometric measurements were then made using an Accuri C6 flow cytometer with forward scatter and side scatter gating parameters initially set collecting on live intact cells. The live cell population selected was further gated into four quadrants using dual FL-1 and FL-4 fluorescence enabling for the differentiation of effector only cells (top left quadrant-high FL-4), target only cells (bottom right quadrant-high FL-1 fluorescence), and double positive overlapping target and effector cells (top right quadrant-high FL-1 and FL-4 fluorescence). The upper right quadrant indicating the number of phagocytosed target cells was used to calculate the percent phagocytosis: % targets phagocytosed=[(double-positive cells)/(remaining target cells+double-positive cells)×100%]−background phagocytosis.
smiles,measurement,setting,value
O=C1c2ccccc2-c2onc3c(N4CCC[C@H](C(=O)NCCCOCCOCCOCCCNc5ccc([N+](=O)[O-])cc5[N+](=O)[O-])C4)cc(Nc4ccc(S(=O)(=O)O)cc4S(=O)(=O)O)c1c23,pKd,"uPAR (uPA binding site); read-out: calculated dissociation constant, uPAR binding",7.92
same,uPAR-binding affinity relative to parent ARM-U2 derivative 1-ABT-1,uPAR (uPA binding site),significant increase in affinity
same,ADCP efficacy at 4 degrees celcius,A172 glioblastoma cells; 4 °C,complete loss of efficacy
same,ADCP efficacy and potency compared to 1-ABT-1,"A172 glioblastoma cells; U937 effector cells, anti-DNP antibodies",significant increase in potency and efficacy
same,concentrations at which phagocytosis declines (prozone effect),A172 glioblastoma cells; downward slope of bell shaped curve,> 100 nM
same,ADCP with 6-ABT-4 competitor,A172 glioblastoma cells; out-competition with 6-ABT-4,disrupt phagocytosis
same,ADCP with exogenous uPAR,A172 glioblastoma cells; out-competition with exogenous uPAR,disrupt phagocytosis
